According to patent US12054477B2, “Prodrug of pyrrolidone derivatives as glucokinase activator” (HUA MEDICINE (SHANGHAI) LTD., priority 2021, dated 2024):

Tests used:
[1] = Stability test of compounds in Simulated Gastric Fluid (SGF); assay type: in vitro ADME; conditions: SGF pH about 1.20, 37° C., 2 μM
Procedure: Preparation of Simulated Gastric Fluid (SGF): Dissolve 0.04 g NaCl and 0.064 g pepsin in 0.14 mL HCl and add sufficient H2O to make the final volume to 20 mL. The pH of the test solution was about 1.20±0.05.

[2] = Simulated metabolic test of compounds in Human Intestine S9; assay type: in vitro ADME; conditions: HIS9 0.5 mg/mL, 37° C., time point 0 min
Procedure: Preparation of Phosphate Buffer (PB): Dissolve 73.21 g K2TIPO4·3H2O (AR grade) and 10.78 g KH2PO4 (AR grade) in ultra-pure water to make the final volume to 4000 mL and the final concentration to 100 mM. The pH of the final test solution was adjusted to pH 7.40±0.10 with H3PO4/KOH.
Preparation of test compound working solution: 5 μL of test compound stock solution (10 mM in DMSO) were diluted with 995 μL of acetonitrile (ACN) to give a test compound working solution (intermediate solution concentration: 50 mM, 990 ACN)
The main materials of the test are shown in Table 4, and the parameters of preparation components of human intestinal S9 (HIS9) solution are shown in Table 5.
An Apricot automation workstation was used to add 50 μL/well of HIS9 solution to the corresponding wells of all reaction plates (blank, T0, T5, T15, T30, T45, T60).
Using an Apricot automation workstation, 2 μL/well of test compound working solution was added to the corresponding wells of all 96-well reaction plates except the blank (T0, T5, T15, T30, T45, T60).
An Apricot automation workstation was used to add 48 μL/well of PB to the corresponding wells of every reaction plate (Blank, T0, T5, T15, T30, T45, T60) to start the reaction.
The reaction plates were incubated at 37° C., and timer was started. […]

[3] = SIF pH about 6.80, 37° C., 2 μM
Caco-2 cells = experiment: Bi-directional permeability test using Caco-2 cells

**Q.** Which “Remaining of Test Compound (%)” value ([1]; time point 0 hr) does the source give for CC(C)C[C@@H](C(=O)Nc1ccn(C[C@@H](O)COC(=O)c2cccnc2)n1)N1CC(Oc2ccccc2Cl)=CC1=O [Compound 3] here?
**A.** The value was 100.00%.

**Q.** What about the “Remaining of Test Compound (%)” value ([1]; time point 1 hr) of the same compound?
**A.** The value was 90.35%.

**Q.** And the “Remaining of Test Compound (%)” value ([1]; time point 2 hr)?
**A.** Its value is 95.99%.

**Q.** And the “Remaining of Test Compound (%)” value ([1]; time point 6 hr)?
**A.** The value was 90.10%.

**Q.** And the “Remaining of Test Compound (%)” value ([1]; time point 24 hr)?
**A.** The value was 89.48%.

**Q.** What about the “Remaining of Test Compound (%)” value [2] of the same compound?
**A.** Its value is 100%.

**Q.** And the “Remaining of Test Compound (%)” value ([3]; time point 0 hr)?
**A.** Its value is 100.00%.

**Q.** And the “Remaining of Test Compound (%)” value ([3]; time point 1 hr)?
**A.** The value was 53.14%.

**Q.** What about the “Remaining of Test Compound (%)” value ([3]; time point 6 hr) of the same compound?
**A.** The value was 2.35%.

**Q.** And the “Remaining of Test Compound (%)” value ([3]; time point 24 hr)?
**A.** Its value is 0.00%.

**Q.** What about the “Permeability from A to B (in words)” value (Caco-2 cells) of the same compound?
**A.** The value was “low”.

**Q.** What about the “Permeability from B to A (in words)” value (Caco-2 cells) of the same compound?
**A.** Its value is “high”.

**Q.** And the “Substrate for efflux transporters (in words)” value (Caco-2 cells)?
**A.** The value was “likely to be the substrate for efflux transporters”.

Like-named read-outs stand apart in the source and are kept apart here.
